Legend:
[1] = pH 6.8; cited from earlier work
[2] = pH 6.8

Question: For “Hydroxypropyl methyl cellulose acetate succinate [HPMCAS]”, which “Equilibrium solubility of ritonavir in the presence of polymer (Table 7)” value [1] is on record?
Answer: Its value is 1.4 ± 0.09 µg/mL.

Question: What about the “Equilibrium solubility of efavirenz in the presence of polymer” value [2] of the same substance?
Answer: The value was 8.4 ± 0.03 µg/mL.

Question: What about the “Solubility of Ritonavir in the presence of polymer” value [2] of the same substance?
Answer: The value was 1.4 ± 0.09 µg/mL.

— patent US20150004237A1, “CELLULOSE DERIVATIVES FOR INHIBITING CRYSTALLIZATION OF POORLY WATER-SOLUBLE DRUGS” (Virginia Tech Intellectual Properties, Inc., priority 2012, published 2015)
